According to ChEMBL document CHEMBL1153772, “Isolation, synthesis, and biological activity of aphrocallistin, an adenine-substituted bromotyramine metabolite from the Hexactinellida sponge Aphrocallistes beatrix” (J Nat Prod, 2009):

Experiments:
Vero [1] = experiment: Selectivity ratio of IC50 for human PANC1 cells having p53 mutation to IC50 for african green monkey Vero cells
Vero [2] = experiment: Selectivity ratio of IC50 for human DLD1 cells bearing p53 mutation to IC50 for african green monkey Vero cells

## CC(=O)N(C)CCc1cc(Br)c(OCCCNc2ncn(C)c3ncnc2-3)c(Br)c1 [APHROCALLISTIN]
Vero [1]
  Ratio IC50: 3
Vero [2]
  Ratio IC50: 10
